Bioassay records (PubChem)
Shown are actives, neighbours in structure and some others; about 0.46% of the full set was active somewhere.
GIV Gai3 FP: inhibitors of GIV peptide binding to Galpha-i3, primary screen, biochemical, fluorescence polarization, FITC-GIV GBA peptide, rat Galphai3; 90 min; stronger effect = lower value; scaled: aluminum fluoride 0%, vehicle 100%; percent of control (FP), % (no concentration beside the values); 210,000 tested, 0.42% active; AID 1224905, 2016;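 active = replicate mean at 85% of control or lower, very high polarization wells dropped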;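 note: wells of about 15 µL received 100 nL stock; the first replicate is given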
HCMV UL50-53 inh: inhibitors of HCMV UL50-UL53 interaction, biochemical, HTRF; actives 0.15% (n = 190,000); HCMV UL50-UL53 nuclear egress complex (human cytomegalovirus); normalized percent inhibition; inhibition, % (test concentration not listed); in the data active = inhibition above about 27%, passing the limit was not always enough
* hit, by the source's call; . = not tested or not shown.

Value order – GIV Gai3 FP	HCMV UL50-53 inh
1	COc1cccc2c1C(=O)c1c(O)c3c(c(O)c1C2=O)C[C@@](O)(C(C)=O)C[C@@H]3O[C@H]1C[C@H](N)[C@H](O)[C@H](C)O1
    47*	-181
2	CC(=O)[C@]1(O)Cc2c(O)c3c(c(O)c2[C@@H](O[C@H]2C[C@H](N)[C@H](O)[C@H](C)O2)C1)C(=O)c1ccccc1C3=O
    -46*	-145
3	Cc1[nH]c2ccc(-c3nnc(SCC(=O)N4CCc5ccccc54)o3)cc2c1C
    104	0
4	COC(=O)c1ccc(C2C(C#N)=C(N)Oc3n[nH]c(-c4cc(OC)c(OC)c(OC)c4)c32)cc1 (centres undefined)
    100	-28
5	COCCn1cnnc1SCC(=O)Nc1ccc(Cl)cc1F
    .	-10
6	CC(C)N1CCc2c(sc(NC(=O)C(C)(C)C)c2-c2nc3ccccc3s2)C1
    -26*	.
7	CN1CCc2c(sc(NC(=O)c3nc4ccccc4s3)c2-c2nc3ccccc3s2)C1
    96	.
8	CC(=O)N1CCc2c(sc(NC(=O)C(C)C)c2-c2nc3ccccc3s2)C1
    .	-17
9	CCN1CCc2c(sc(NC(=O)c3ccc(Cl)cc3)c2-c2nc3ccccc3s2)C1
    -3.2*	.
10	CC(=O)Nc1sc2c(c1-c1nc3ccccc3s1)CCN(C(C)C)C2
    -3.2*	.
11	CCN1CCc2c(sc(NC(=O)CSc3ccccc3)c2-c2nc3ccccc3s2)C1
    169	.
12	COc1ccc(C(=O)Nc2sc3c(c2-c2nc4ccccc4s2)CCN(C(C)C)C3)cc1OC
    -3.2*	.
13	COC(=O)c1ccc(C(=O)Nc2sc3c(c2-c2nc4ccccc4s2)CCN(C(C)C)C3)cc1
    262	.
14	CN(C(=O)c1ccc(Oc2ccnc(-c3ccc(F)cc3)n2)cc1)C1CCCCC1
    99	.
15	CC(C)Oc1ccc(C(CC(N)=O)CC(=O)O)cc1 (centres undefined)
    .	6
16	CC1=C(NS(=O)(=O)c2cccc(C(=O)O)c2)CN(c2ccccc2)N1C
    103	-19
17	COc1cc(OC)c(OC)cc1/C=C1\N=C(c2cncc(Br)c2)OC1=O
    -8.4*	.
18	COc1ccc(Br)cc1/C=C1\N=C(c2cc(OC)c(OC)c(OC)c2)OC1=O
    108	.
19	COc1ccc(Br)cc1/C=C1/N=C(c2ccc(OC)c(OC)c2)OC1=O
    -12*	.
20	COc1cc(OC)c(OC)cc1/C=C1\N=C(c2cccc(Br)c2)OC1=O
    172	.

The last 2 compounds of the section before come first, to join the parts:
Value order – GIV Gai3 FP	HCMV UL50-53 inh
19	COc1ccc(Br)cc1/C=C1/N=C(c2ccc(OC)c(OC)c2)OC1=O
    -12*	.
20	COc1cc(OC)c(OC)cc1/C=C1\N=C(c2cccc(Br)c2)OC1=O
    172	.
21	COc1ccc(C2CC(=O)C3=C(C2)Nc2onc(C)c2C3c2ccccc2C)cc1OC (centres undefined)
    103	-19
22	Cc1ccc(NC(=O)NCc2ccnc(N3CCCCC3)c2)cc1C
    106	.
23	COc1cc(OC)c(C(=O)N2CCCN(C)CC2)cc1OC
    102	-31
24	Cc1c(C(=O)O)oc2ccc3c(c12)C(=O)CC1(CCCC1)O3
    96	.
25	COC(=O)c1ccc2c(=O)n(CCCC(=O)N3CCc4ccccc4C3)c(=S)[nH]c2c1
    103	1
26	CN(C)c1ccc(/C=C(\C#N)c2nc3ccccc3c(=O)[nH]2)cc1
    254	-43
27	CN(C)c1ccc(/C=C(\C#N)C(N)=O)cc1
    .	-118
28	CN(C)c1ccc(/C=C(\C#N)C(N)=C(C#N)C#N)cc1
    -24*	.
29	CN(C)c1ccc(/C=C(/C#N)c2ccc(C#N)cc2)cc1
    11*	-10
30	Cc1ccc(NC(=O)Cn2cnc3sc(C(=O)Nc4nc5ccccc5s4)c(C)c3c2=O)cc1Cl
    103	.
31	CCCn1c(N)c(C(=O)CN2CCc3ccccc3C2)c(=O)[nH]c1=O
    .	-4
32	Cc1ccc(Cl)cc1NC(=O)C1CCN(c2ncnc3oc(C)c(C)c23)CC1
    101	-22
33	COc1cc(NC(=O)Cn2c3ccccc3c(=O)c3cc(Cl)ccc32)cc(OC)c1
    109	13
34	O=C1/C(=C/C2=Cc3ccccc3OC2)SC(=S)N1C1CCS(=O)(=O)C1 (centres undefined)
    -35*	-48
35	O=C1/C(=C/c2cn(-c3ccccc3)nc2-c2ccc(Cl)cc2)SC(=S)N1C1CCS(=O)(=O)C1 (centres undefined)
    105	-7
36	CN1CCN(C(=O)c2cccc(Cl)c2)c2cccnc21
    107	-26
37	CN1/C(=C/C=C/C=C/C=[N+](C)c2ccccc2)C(C)(C)c2ccccc21
    258	.
38	CN1/C(=C\C(=O)c2ccccc2)C(C)(C)c2ccccc21
    .	23
39	CCn1c(/C=C/C=C2\N(C)c3ccccc3C2(C)C)[n+](Cc2ccccc2)c2ccccc21
    -32*	.
40	CC[n+]1c(/C=C/C=C2\N(C)c3ccccc3C2(C)C)n(-c2ccccc2)c2cc(Cl)ccc21
    -32*	.
41	CCn1c(C)[n+](CC)c2ccc(Cl)cc21
    .	7
42	CC[n+]1c(/C=C/C=C2\N(C)c3ccccc3C2(C)C)n(-c2ccccc2)c2ccc(C)cc21
    -32*	.
43	CC(C)CNC(=O)CN1CCN(c2cc(C(=O)O)c3cc(NC(=O)C(C)(C)C)ccc3n2)CC1
    106	4

Quoted at random: 2 records from the list, in no set order.
Value order – GIV Gai3 FP	HCMV UL50-53 inh
26	CN(C)c1ccc(/C=C(\C#N)c2nc3ccccc3c(=O)[nH]2)cc1
    254	-43
43	CC(C)CNC(=O)CN1CCN(c2cc(C(=O)O)c3cc(NC(=O)C(C)(C)C)ccc3n2)CC1
    106	4
